Test results: patent US20220241207A1, “EXTENDED-RELEASE SOLID ORAL DOSAGE FORM COMPRISING VITAMIN B12 AND A VITAMIN B12 DEPLETING DRUG” (DSM IP ASSETS B.V., priority 2019, published 2022)

Protocol: The solubilization medium was: • SIF (simulated intestinal fluid, pH=6.8, prepared according to Ph. Eur.)
The dissolution medium was heated to 37° C. and the analyses were performed at this temperature. During the analyses, the salts were added in access to the solubilization media and left to mix for 24 h. Afterwards, the solutions were filtered, and the precipitates were investigated using ATR-IR analysis to confirm the presence of the starting material (e.g. respective Ca salt). Attenuated total reflection (ATR) is a sampling technique used in conjunction with infrared spectroscopy which enables samples to be examined directly in the solid or liquid state without further preparation. The filtered solutions were analysed for Ca^2+ ions content.

## anhydrous calcium citrate
  Ca^2+ ions: 0.460 mg/mL
  Ca^2+ ions average: 0.460 mg/mL
